Consider one compound from PubChem BioAssay AID540248 (The Scripps Research Institute Molecular Screening Center, 2011).

Only a part is listed here, and it is no random draw. The source made the active and inactive calls.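 How the source made its calls: active means mean inhibition over three repeats above a set limit taken from the earlier primary screen (cut at about 37% in these data); inactive means the rest.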

A word on the inhibition: it is the change of the read-out against control, counted positive when it falls.

This assay deals with Serine protease HTRA1 (Homo sapiens) (UniProt Q92743). The assay is described as follows: HTRA1 protease inhibitors, retest, confirmation, biochemical, fluorescence polarization (AID 540248).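 Further: 0% = HTRA1 with DMSO and 100% = wells lacking HTRA1; inhibitors block probe binding so polarization drops and inhibition rises.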 Particulars: recombinant HTRA1, FP-rhodamine activity-based probe, at 5.96 µM, hits give high values. (Fluorescence polarisation rises when a labelled molecule tumbles more slowly, as on binding a larger partner.)
Consider `CCCCCCCCCCCCCCCC1C[N+](C)(C)CCOP(C)(=O)O1` (stereo unspecified), for which the inhibition is active: 85.4%.
